# Experimental data taken from PubChem BioAssay AID1040 (The Scripps Research Institute Molecular Screening Center, 2008).
# By UniProt entry, the sequences of proteins in these tests, tags left out.
# UniProt P25929, whole entry: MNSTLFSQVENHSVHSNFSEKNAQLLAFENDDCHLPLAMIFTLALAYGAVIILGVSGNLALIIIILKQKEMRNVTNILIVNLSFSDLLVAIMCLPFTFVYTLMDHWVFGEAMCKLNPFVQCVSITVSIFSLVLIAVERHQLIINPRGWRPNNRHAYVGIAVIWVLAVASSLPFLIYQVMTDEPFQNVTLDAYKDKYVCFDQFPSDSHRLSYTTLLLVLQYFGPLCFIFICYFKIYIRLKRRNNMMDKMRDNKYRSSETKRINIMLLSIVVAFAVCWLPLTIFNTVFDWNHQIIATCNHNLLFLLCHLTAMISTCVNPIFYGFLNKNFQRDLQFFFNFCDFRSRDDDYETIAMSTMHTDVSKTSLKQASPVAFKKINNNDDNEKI
# This is a selection; strong and weak results do not stand in their true shares. Some tests of the compounds listed are not included; inactive here does not mean inactive elsewhere. Active and inactive are the calls of the source.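 How the source made its calls: active means inhibition above the campaign mean inhibition of all tested compounds plus 3 SD (cut at about 20% in these data); inactive means the rest.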
# Target: Neuropeptide Y receptor type 1 (Homo sapiens) (UniProt P25929)
# Experiment: blockers of human neuropeptide Y Y1 receptor – cell-based, primary screen (AID 1040);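 further: 0% = DMSO wells given NPY plus isoproterenol and 100% = isoproterenol alone without NPY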
# Details: HEK293-CNG Y1 cells, membrane potential fluorescence; at 3.6 µM; active compounds read high; NPY at EC95, then isoproterenol
row,SMILES,inhibition
1,CN(C)c1cccc(C(=O)NCC2(N(C)C)CCCCC2)c1,inactive: 5.76%
2,O=C(OC1CN2CCC1CC2)C(CO)(c1ccccc1)c1ccccc1 (centres undefined),inactive: -2.22%
3,COc1cccc(C(=O)NCC2(N3CCCCC3)CCCCC2)c1,inactive: 7.6%
4,CCN1CCCC(OC(=O)C2(O)c3ccccc3C=Cc3ccccc32)C1 (centres undefined),inactive: 3.3%
5,C=CCN1CCN(CCOC(=O)C(O)(c2ccccc2)c2ccccc2)CC1,inactive: -10.2%
6,CN(C)C1CCCC1OC(=O)C(O)(c1ccccc1)c1ccccc1 (centres undefined),inactive: 2.68%
7,Cc1ccccc1C(=O)NCC1(N2CCCCC2)CCCCC1,inactive: -0.75%
8,CC(C)N1C(=O)CC2(CCN(CCOC(=O)C(O)(c3ccccc3)c3ccccc3)CC2)C1=O,inactive: -0.72%
9,O=C(NCC1(N2CCCCC2)CCCCC1)c1cc([N+](=O)[O-])ccc1Cl,inactive: 2.57%
